# Membrane permeability of cyclic peptides

Values of Nielsen et al. 2015, doi:10.1002/cbic.201500441, as listed in CycPeptMPDB.

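The data file gives no further conditions (lipid, pH, time, direction or concentration), and values from different papers need not be comparable. Other peptides of the study may be missing here. Peptides that the database sets to -10, its floor, are left out.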

PAMPA is the parallel artificial membrane permeability assay, which has no cells and reads passive diffusion.
P is given in units of 10^-6 cm/s (from log10 values with two decimals); larger means faster passage.
Entries marked < or ≤ lay at or below the stated limit.

SMILES | PAMPA (10^-6 cm/s)
CC(C)C[C@@H]1NC(=O)[C@H](CC(C)C)N(C)C(=O)[C@H]2CCCN2C(=O)[C@H](CC(C)C)NC(=O)[C@H](Cc2ccc(O)cc2)N(C)C(=O)[C@H]2CCCN2C1=O | 6.8
CC(C)C[C@@H]1NC(=O)[C@H](Cc2ccc(O)cc2)N(C)C(=O)[C@@H](CC(C)C)N(C)C(=O)[C@H](CC(C)C)NC(=O)[C@H](CC(C)C)N(C)C(=O)[C@@H](CC(C)C)N(C)C1=O | < 0.1